Source: article PMC4492447 (Journal of medicinal chemistry, 2012)
Values joined by “and” are separate entries in the source; they are usually repeats but may differ in a detail not shown here. Identical values can stand only once.

Sequences of proteins named here, by UniProt entry; tags and fusion partners are left off.
UniProt P21554, whole entry: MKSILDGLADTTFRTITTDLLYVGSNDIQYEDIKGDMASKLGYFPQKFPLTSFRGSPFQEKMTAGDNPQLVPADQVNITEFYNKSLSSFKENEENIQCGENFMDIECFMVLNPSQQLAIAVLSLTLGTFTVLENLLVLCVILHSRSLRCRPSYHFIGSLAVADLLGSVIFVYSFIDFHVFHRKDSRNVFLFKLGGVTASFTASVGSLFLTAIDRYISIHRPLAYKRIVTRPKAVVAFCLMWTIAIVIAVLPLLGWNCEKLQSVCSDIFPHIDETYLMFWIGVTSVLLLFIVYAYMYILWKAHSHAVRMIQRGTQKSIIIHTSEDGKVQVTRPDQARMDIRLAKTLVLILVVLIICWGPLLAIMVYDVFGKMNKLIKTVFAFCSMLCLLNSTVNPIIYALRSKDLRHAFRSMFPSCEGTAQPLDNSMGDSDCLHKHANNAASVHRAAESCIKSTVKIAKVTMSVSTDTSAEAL

Tests used:
[1] = target: T1, CB1 (Homo sapiens, UniProt P21554); assay type: binding; details: selectivity, [3H]CP55940 displacement
[2] = target: T1, CB1; assay type: cell-based

SMILES | CB2/CB1 Ki ratio [1] | Kb [2]
CCCCNC(=O)NC1(c2ccccc2)CCN(c2ncnc3c2nc(-c2ccccc2Cl)n3-c2ccc(Cl)cc2)CC1 [Compound 13e, 3-Butyl-1-{1-[8-(2-chlorophenyl)-9-(4-chlorophenyl)-9H-purin-6-yl]-4-phenylpiperidin-4-yl}urea] | 74 and >74 | 
CC(C)(C)OC(=O)N1CCC[C@@H](Nc2ncnc3c2nc(-c2ccccc2Cl)n3-c2ccc(Cl)cc2)C1 [Compound 15a, tert-Butyl (3R)-3-{[8-(2-chlorophenyl)-9-(4-chlorophenyl)-9H-purin-6-yl]amino}piperidine-1-carboxylate] |  | 0.326 µM
Clc1ccc(-n2c(-c3ccccc3Cl)nc3c(N[C@@H]4CCCNC4)ncnc32)cc1 [Compound 15b, 8-(2-Chlorophenyl)-9-(4-chlorophenyl)-N-[(3R)-piperidin-3-yl]-9H-purin-6-amine] |  | 5.55 µM
CC(C)(C)OC(=O)N1CCC[C@H](Nc2ncnc3c2nc(-c2ccccc2Cl)n3-c2ccc(Cl)cc2)C1 [Compound 16a, tert-Butyl (3S)-3-{[8-(2-chlorophenyl)-9-(4-chlorophenyl)-9H-purin-6-yl]amino}piperidine-1-carboxylate] |  | 3.93 µM
Clc1ccc(-n2c(-c3ccccc3Cl)nc3c(N[C@H]4CCCNC4)ncnc32)cc1 [Compound 16b, 8-(2-Chlorophenyl)-9-(4-chlorophenyl)-N-[(3S)-piperidin-3-yl]-9H-purin-6-amine] |  | 8.41 µM
